Test results as given in US9839646B2, “Small molecule enhancer for dendritic cell cancer vaccines” (priority 2011, dated 2017).

Columns and labels:
HCT-116 xenograft tumors = test: Colon cancer xenograft in nude mice; details: single agent; ARI-4175 100 μg oral q.d or b.i.d; cetuximab 200 μg per week i.p.
DLD-1 xenograft tumors = test: Colon cancer xenograft in nude mice; details: single agent; ARI-4175 100 μg oral q.d or b.i.d; cetuximab 200 μg per week i.p.

In the case of “Cetuximab: therapeutic antibody; antitumor effect thought mediated through ADCC [reference compound]”, the tumor growth (HCT-116 xenograft tumors) is reported as “did not show any therapeutic effect” and the tumor growth (DLD-1 xenograft tumors) is reported as “moderate efficacy”.
